Values of other authors as cited in patent US20020065326A1, “Patient oxygenation using stabilized fluorocarbon emulsions” (priority 1992, published 2002).

Settings: organ retention half life; prior art / nonlipophilic fluorocarbons from literature; cited from earlier work

## F-dipipendine
  t½: 24 days
